Experimental data taken from patent US20070027073A1, “Long-acting derivatives of pyy agonists” (priority 2003, published 2007).

System: normal C57BL/6 male mice
Experiment: mouse re-feeding model, food intake after starvation
Type: in vivo
Procedure: To evaluate the efficacy of (FMS)2-PYY3-36 as modulator of food intake, it was studied in a re-feeding model. Briefly, normal C57BL/6 male mice were subjected to a starvation period of 24 h with unrestricted supply of drinking water. At different time points during the starvation the mice were injected intra-peritoneally with either saline, PYY3-36 or (FMS)2-PYY3-36. At the end of the starvation period, the mice were presented with pre-weighted supply of standard chow and the amount of food consumed during the first 2 h was recorded. Each study group consisted of 10 mice and the amount of food consumed was measured per 10 mice. When mice were injected with 2.5 μg of PYY3-36 in 0.1 ml saline at time 24 h (immediately before providing the food), there was a 28% reduction of food intake as compared with a control group of mice injected with saline. When mice were injected with 2.5 μg of PYY3-36 in 0.1 ml saline at time 23 h 45 min (15 min. before providing the food), there was a 40% reduction of food intake as compared with a control group of mice injected with saline. The improved response to PYY3-36 in the second experiment was due to higher food consumption in the group injected with saline at 23 h 45 min as compared with the group injected with saline at 24 h. […] In another study, mice were injected with 1 μg of PYY3-36 at time 23 h, 45 min. and the amount of food consumed was reduced by 31% as compared with a saline-injected group. Thus, a dose-response was obtained.
The efficacy of (FMS)2-PYY3-36 as a modulator of food intake was studied using a re-feeding model. A group of 10 normal C57BL/6 male mice at the age of 9 weeks were subjected to starvation for a period of 24 h with unrestricted supply of drining water. At the end of this period, the mice were injected intra-peritoneally with either 0.1 ml saline or 2.5 μg PYY3-36 dissolved in 0.1 ml saline per mouse. The mice were then immediately presented with pre-weighted supply of standard chow and the amount of food consumed during the first 2 h was recorded. Each study group consisted of 10 mice and the amount of food consumed as reported in this example was per 10 mice. The amount of chow consumed by the group of 10 saline-injected control mice was 9.9 g. The amount of chow consumed by the group of 10 PYY3-36-injected mice was 7.1 g.
Two groups of 10 normal male C57BL/6 mice at the age of 10 weeks were subjected to starvation for a period of 24 h, with unrestricted supply of drinking water. At time 23 h 45 min, one group of mice was injected intraperitoneally with 0.1 ml saline and the second group was injected with 2.5 μg PYY3-36 dissolved in 0.1 ml saline per mouse. The mice were presented at 24 h with a pre-weighted supply of standard chow and the amount of food consumed during the first 2 h was recorded. The amount of chow consumed by the group of 10 saline-injected control mice was 10.9 g. The amount of chow consumed by the group of 10 PYY3-36-injected mice was 6.5 g.
Two groups of 10 normal male C57BL/6 mice at the age of 12 weeks were subjected as before to starvation for a period of 24 h with unrestricted supply of drinking water. At time 19 h, one group of mice was injected intra-peritoneally with 0.1 ml saline and the second group was injected with 2.5 μg PYY3-36 dissolved in 0.1 ml saline per mouse. The mice were presented at 24 h with a pre-weighted supply of standard chow and the amount of food consumed during the first 2 h was recorded. The amount of chow consumed by the group of 10 saline-injected control mice was 11.2 g. The amount of chow consumed by the group of 10 PYY3-36-injected mice was 11.4 g. […] Therefore, when PYY3-36 is administered at a dose of 2.5 μg per mouse, its effect on food intake is lost after 5 h.
Two groups of 10 normal male C57BL/6 mice at the age of 12 weeks were subjected to starvation for a period of 24 h with unrestricted supply of dinking water. […]

[1] = 20 μg given 4 h before re-feeding at 24 h
[2] = 20 μg i.p. at time 45 h (so in the source), food at 24 h, first 2 h
[3] = 50 μg i.p. at time 23 h, food at 29 h (starvation 29 h), first 2 h
[4] = 3 microgram per mouse i.p. at time 23 h 45 min, food at 24 h, first 2 h

FMS-Ile-Lys(e-FMS)-Pro-Glu-Ala-Pro-Gly-Glu-Asp-Ala-Ser-Pro-Glu-Glu-Leu-Asn-Arg-Tyr-Try-Ala-Ser-Leu-Arg-His-Tyr-Leu-Asn-Leu-Val-Thr-Arg-Gln-Arg-Tyr-NH2 [(FMS)2-PYY3-36]
amount of food consumed relative to that consumed by saline-injected group (5 μg per mouse at time 23 h 45 min): 90%
reduction of food consumed as compared with saline-injected group (20 μg at time 5 h, 19 h before re-feeding, food consumed at time 24-26 h): 26%
amount of chow eaten by the group of 10 mice [1]: 7.4 g
reduction in food intake vs saline [1]: 40%
amount of chow consumed by the group of 10 mice [2]: 8.3 g
reduction of food consumed as compared with saline-injected control group [2]: 26%
reduction of food consumed as compared with saline-injected group (50 μg at time 18 h, 6 h before re-feeding): 49%
amount of chow consumed by the group of 10 mice [3]: 5.9 g
reduction of food consumed as compared with saline-injected control group [3]: 51%
amount of chow consumed by the group of 10 mice [4]: 9.9 g
effect on food intake (reduction vs saline) [4]: 10%
